Assays:
[1] = system: KPL4 and SKBR3 cells; test: MTT assay of HER2+ breast cancer cell growth in vitro; format: cell-based, human; details: 3 days post treatment, FIG. 9E
Experimental: FIG. 9. […] EC50 for each binding assay were calculated using non-linear regression curve fit, Assymetric Sigmoidal model in Graphpad Prism software. […] ELISA assays using Trastuzumab as antigen were performed to determine anti-Trastuzumab responses in mouse serum. (C-D) HER2 signaling assays were performed using 293T cells stably transduced with dox-inducible HER2Δ16. Cells were treated with dox and transfected with luciferase reporter constructs for (C) MAPK/ERK or (D) AP-1/c-JUN pathways activation. […] The HER2-Tyrosine kinase inhibitor Lapatinib were used as positive assay control at the highest possible dose (500 nM) without inducing cell toxicity.

[2] = system: KPL-4 tumors; test: KPL-4 xenograft in SCID-Beige mice; format: in vivo, mouse; details: 50 μg weekly; FIG. 8D
Experimental: (§1) FIG. 8. […] (A-B) Kaplan-Meier survival curve for breast cancer (BC) patients METABRIC Dataset. (A) Stratified into low and high groups based on average expression of CD47 in all patients. (B) The same patient stratification based on disease subtype (ER+, HER2+ and TNBC). (C) CD47 knockout in human HER2+ BC line KPL-4 was generated using CRISPR-Cas9 approach. […] Antibody-dependent-cellular-phagocytosis (ADCP) activity were measured by percentage of hMDM uptake of labeled KPL-4 cells (CD45+ and BV450+). Mean±SEM, biological replicates n=4. Experiment has been repeated using hMDMs generated from three healthy PBMC donors. (D) Control or CD47-KO KPL-4 cells were implanted into mammary fat pads of SCID-Beige Balb/c mice (5×10^5 cells). […] Two-way ANOVA test with Tukey's multiple comparisons, ****P<0.0001. […] Mean±SEM, n=7. […] Mean±SEM, n=7. Multiple two-sided t-test. (C and E) One-way ANOVA test with Tukey's multiple comparisons, *P<0.05, **P<0.01, ***P<0.001.

[3] = system: KPL-4 cells; test: ADCP assay with human monocytes-derived macrophages (hMDM); format: cell-based; details: CD47-KO versus control KPL-4; Trastuzumab 10 μg/mL; FIG. 8C
Experimental: as §1
ADCP and ADCC by macrophages—Bone marrow derived macrophages (BMDM) were generated from mouse tibia, differentiated for 10 days with 50 ng/mL mouse MCSF (Peprotech 315-02). Briefly, 50 million bone marrow cells were plated in 10 cm^2 tissue culture dish with MCSF on day 0. […] After 2 hours co-culture, phagocytosis of BV450-labeled tumor cells by BMDM were analyzed by FACS with CD45-APC staining and Live-death (Red) staining. […]

[4] = molecular target: T1, mouse FCGR4 (Mus musculus, UniProt A0A0B4J1G0); test: FCGR signaling activation assay (Jurkat NFAT-luciferase), FCGR4; format: cell-based; details: NFAT-luciferase reporter, FIG. 2H
T1 construct: expressed in transfected cells; host or cells: Jurkat-NFAT-LUC (Invivogen jktl-nfat), lentiviral transduction, puromycin selection
T1 sequence (A0A0B4J1G0 21-249): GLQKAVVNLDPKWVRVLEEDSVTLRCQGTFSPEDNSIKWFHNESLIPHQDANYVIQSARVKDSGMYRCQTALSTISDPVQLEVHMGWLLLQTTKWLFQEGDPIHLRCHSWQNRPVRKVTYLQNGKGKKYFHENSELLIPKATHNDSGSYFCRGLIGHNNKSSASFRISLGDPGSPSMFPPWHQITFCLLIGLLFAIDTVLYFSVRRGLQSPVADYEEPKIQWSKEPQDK
Experimental: (§2) FIG. 2. […] (F-H) Mouse FCGR signaling activation assay.
(§3) Jurkat cells expressing mouse Fcgr1, Fcgr2b, Fcgr3 or Fcgr4 with NFAT-Luciferase reporter were generated with lentiviral transduction and selected with puromycin (validated in FIG. 12D-F). […] Jurkat-FCGR-NFAT-LUC effector cells were added and co-cultured for 4 hours. FCGR signaling activation were assessed by luciferase activity quantification.

[5] = molecular target: T2, mouse FCGR1 (Mus musculus, UniProt P26151); test: FCGR signaling activation assay (Jurkat NFAT-luciferase), FCGR1; format: cell-based; details: NFAT-luciferase reporter, FIG. 2F
T2 construct: expressed in transfected cells; host or cells: Jurkat-NFAT-LUC (Invivogen jktl-nfat), lentiviral transduction, puromycin selection
T2 sequence (P26151 25-404): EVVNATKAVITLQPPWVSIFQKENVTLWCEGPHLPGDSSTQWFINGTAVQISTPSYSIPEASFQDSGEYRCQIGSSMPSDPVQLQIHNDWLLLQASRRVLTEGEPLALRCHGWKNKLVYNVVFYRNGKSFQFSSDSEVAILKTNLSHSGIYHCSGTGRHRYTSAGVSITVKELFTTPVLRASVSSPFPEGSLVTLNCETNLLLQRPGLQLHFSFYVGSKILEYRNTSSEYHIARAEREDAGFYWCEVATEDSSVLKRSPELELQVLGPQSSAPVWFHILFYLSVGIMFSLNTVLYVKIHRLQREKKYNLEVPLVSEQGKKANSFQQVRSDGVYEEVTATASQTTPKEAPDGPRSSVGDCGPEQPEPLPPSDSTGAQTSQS
Experimental: as §2, §3

[6] = system: tumor-associated macrophages (TAM); test: Flow cytometry analysis of tumor infiltrating immune cells; format: in vivo, mouse
Experimental: When tumor growth reached humane end point size (>1000 mm^3), whole tumors from mice were harvested and cut into <1 mm small pieces, and incubated for 1 hour in digestion buffer (DMEM+100 μg/mL collagenase+0.2 U/mL DNAse+1 μg/mL hyalurodinase). Single cell suspensions were spin down through a 70 μm filter and washed with medium. Approximately 5 million cells were used for staining and flow cytometry analysis. The following panel of immune cell markers (Biolegend) were used: CD45 BV650, CD11b PE-Cy7, LY6G APC, LY6C BV410, F4/80 PerCP-CY5.5, CD8B APC-CY7, CD4 PE-TR, CD49b FITC and viability dye (Aqua or Red). Tumor-associated macrophages (TAM) were identified by F4/80+ LY6G− LY6C− CD11b+ CD45+ gating. LY6G+ neutrophils were identified by LY6G+ CD11b+ CD45+ gating, whereas LY6C+ monocytes were gated on LY6C+ CD11b+ CD45+ cells.

[7] = system: CEM.NKR expressing HER2 and luciferase; test: In vitro NK cell mediated ADCC assay; format: cell-based; details: co-culture, NK.92 expressing mouse FCGR3 as effector cells
Experimental: FIG. 10. […] (B-C) Anti-tumor specific T cell responses as measured by IFNγ ELISPOT against human HER2 peptides using mouse splenocytes from (B) MM3MG-HER2Δ16 orthotopic model or (C) HER2 transgenic model (described in FIG. 5A). (D) In vitro NK cell mediated ADCC assay were performed using NK.92 expressing mouse FCGR3 as effector cells and CEM.NKR expressing HER2 and luciferase as target cells. […] Mean±SEM, biological replicates n=4, two-sided t-test, ***P<0.001. (E) In vitro Complement-dependent-cytotoxicity (CDC) assay were performed using 25% human serum treatment (4 hours) on MM3MG-HER2Δ16 lines expressing luciferase.

[8] = system: tumor-associated macrophages; test: RT-qPCR analysis of macrophages sorted from KPL4 xenografts; format: in vivo, mouse; details: FIG. 8F
Experimental: as §1
KPL4 xenografts were processed into single cell suspensions as described above, and tumor associated macrophages were sorted by FACS (Live CD45+ CD11b+ Gr1− and F4/80+). RNA were isolated from sorted macrophages using RNeasy Mini Kit (Qiagen) and cDNA were generated using “All-in-One cDNA Synthesis Supermix (Biotool B24403). RT-qPCR were performed using 2× SYBR Green qPCR Master Mix (Biotool B21202).

[9] = MM3MG-HER2Δ16 tumors in Balb/c mice

- FCGR4 signaling activation [4]: strong human-murine cross-reactivity
- FCGR1 signaling activation [5]: strong human-murine cross-reactivity
Substance: Trastuzumab: HER2-specific humanized monoclonal antibody, human IgG1 isotype, high A/I ratio (SEQ ID NOs: 1-2)
- tumor cell growth in vitro [1]: not significantly enough to prevent tumor cell growth in vitro
- tumor growth of CD47-KO KPL-4 [2]: tumors being completely eliminated
- tumor growth of control KPL-4 [2]: strong effect
- ADCP of KPL-4 cells by hMDM [3]: increased their susceptibility to ADCP elicited by Trastuzumab
- TAM levels ([6]; KPL-4 xenografts in SCID-beige mice, FIG. 8E): significant increase of TAMs
- TAM levels [6, 9]: significantly increased the levels of tumor-associated macrophages
- other immune infiltrates (NK cells, T cells) [6, 9]: did not increase other immune infiltrates such as NK cells and T cells
- NK cell-mediated ADCC [7]: increased
- pro-inflammatory gene expression in sorted TAMs [8]: upregulation of pro-inflammatory genes

— patent US20220049015A1, “COMPOSITIONS AND METHODS FOR THE TREATMENT AND/OR PREVENTION OF HER2+ CANCERS” (DUKE UNIVERSITY, priority 2018, published 2022)
